Reference: paper PMC5120274, “Characterization of the Annonaceous acetogenin, annonacinone, a natural product inhibitor of plasminogen activator inhibitor-1” (Scientific Reports, 2016)

By UniProt entry, the sequences of proteins in these tests, tags left out. Residues count along the entry.
UniProt P05121, 24-402: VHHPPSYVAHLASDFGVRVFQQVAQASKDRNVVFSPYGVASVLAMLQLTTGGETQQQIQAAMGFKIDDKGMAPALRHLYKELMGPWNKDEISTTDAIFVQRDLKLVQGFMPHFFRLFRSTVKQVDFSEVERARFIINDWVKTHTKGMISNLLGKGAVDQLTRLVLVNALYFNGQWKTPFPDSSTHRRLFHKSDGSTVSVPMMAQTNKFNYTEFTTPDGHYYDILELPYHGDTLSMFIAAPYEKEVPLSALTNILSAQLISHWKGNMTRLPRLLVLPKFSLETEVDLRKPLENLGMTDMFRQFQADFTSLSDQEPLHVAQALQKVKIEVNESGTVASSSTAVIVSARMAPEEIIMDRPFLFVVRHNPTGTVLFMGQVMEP

Target: T1, PAI-1 (Homo sapiens, UniProt P05121)
T1 construct: purchased Stago BNL (Asnières sur Seine, FR)
Test: chromogenic screening assay: rate of tPA inhibition by PAI-1 (spectrozyme tPA hydrolysis)
Type: biochemical
Conditions: without vitronectin, mean ± SEM, n = 3
Experimental: Compounds from our local collection BioCIS and from the Prestwick compound library (Prestwick chemicals, Illkirch, FR), a collection containing only FDA approved drugs (around 4000 compounds in total) were tested in a chromogenic assay measuring the inhibition rate of tPA-catalyzed spectrozyme® tPA hydrolysis in the presence of PAI-1. Compounds (20 μL, final concentration 50 μM, 1% DMSO) were dispensed in a 96 well half area Greiner plate. A mixture containing 20 μL of PAI-1 (final concentration 20 nM) and 80 μL of Spectrozyme-tPA (final concentration 400 μM) was then added, and the mixture pre-incubated for 45 minutes at 37 °C. At the end of pre-incubation time, 90 μL of the mixture were added to another 96 well half area plate containing 10 μL tPA (final concentration 10 nM). The kinetic was then measured at 405 nm for 45 min at 37 °C in an Envision microplate reader. Progress curves were fitted using the pseudo first order equation to determine the apparent rate constant k.

O=C(O)C(=O)c1cn(Cc2ccccc2)c2ccc(-c3ccc(OC(F)(F)F)cc3)cc12 [Tiplaxtinin, reference compound]
IC50: 28 ± 1 µM
